Amino acid sequences for entries named in this document (tags omitted).
UniProt P61169, whole entry: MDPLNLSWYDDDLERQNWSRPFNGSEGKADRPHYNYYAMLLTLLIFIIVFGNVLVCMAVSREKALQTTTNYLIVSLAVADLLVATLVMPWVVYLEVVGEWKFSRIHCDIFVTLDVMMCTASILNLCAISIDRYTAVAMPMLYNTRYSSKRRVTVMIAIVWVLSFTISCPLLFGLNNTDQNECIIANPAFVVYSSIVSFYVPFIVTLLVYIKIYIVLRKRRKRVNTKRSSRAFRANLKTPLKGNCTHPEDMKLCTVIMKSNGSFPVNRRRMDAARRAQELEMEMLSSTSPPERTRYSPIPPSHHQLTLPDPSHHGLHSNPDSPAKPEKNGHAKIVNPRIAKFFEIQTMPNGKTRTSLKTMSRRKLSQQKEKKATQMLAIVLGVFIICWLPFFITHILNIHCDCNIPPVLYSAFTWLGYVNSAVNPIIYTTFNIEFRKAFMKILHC

According to US4525360A, “Anti-psychotic phenylindene derivatives and acid addition salts thereof” (Kefalas A/S, priority 1982, dated 1985):

Molecular target: T1, D-2 receptors (Rattus norvegicus, UniProt P61169)
T1 construct: The corpora striata are dissected out and homogenized; from tissue; host or cells: rat corpus striatum membranes
Assay: 3H-spiroperidol binding to rat striatal membranes (D-2 receptors)

## OCCN1CCN(CC/C=C2/c3ccccc3Sc3ccc(C(F)(F)F)cc32)CC1 [Cis(Z)-flupentixol, reference compound]
  IC50: 3.2 nM
